{"source": "patent US20220002435A1", "about": "(IMMUNOME, published 2022)", "binders": {"B1": {"name": "IMM20059 (antibody, human IgG1, kappa, V domains shown)", "VH": "EVQLVESGGGLVQPGGSLRLSCAASGFTFSIHSLNWVRQAPGKGLEWVSYISSNSTTIYYADSVKGRFTISRDNAKDSLYLQMNSLRDEDTAVYYCARDYYCTGGTCFFLPDLWGRGALVTVSS", "VL": "EIVLTQSPATLSLSPGERATLSCRASQNISNFLAWYQHKPGQAPRLLIYDASIRATGIPARFSGSGSGTDFSLTISSLEPEDFAVYFCQQRYNWLTFGGGTKVEIKR"}}, "target": "T1, human EPN1 expressed by human cell lines (human, UniProt Q9Y6I3 1-576)", "T1 construct": "Endogenous EPN1 of human tumour and normal cell lines, stained on live cells or on fixed and permeabilised cells, or immunoprecipitated; The cell lines were not engineered to express it; also called surface EPN1; huEPN1", "T1 sequence": "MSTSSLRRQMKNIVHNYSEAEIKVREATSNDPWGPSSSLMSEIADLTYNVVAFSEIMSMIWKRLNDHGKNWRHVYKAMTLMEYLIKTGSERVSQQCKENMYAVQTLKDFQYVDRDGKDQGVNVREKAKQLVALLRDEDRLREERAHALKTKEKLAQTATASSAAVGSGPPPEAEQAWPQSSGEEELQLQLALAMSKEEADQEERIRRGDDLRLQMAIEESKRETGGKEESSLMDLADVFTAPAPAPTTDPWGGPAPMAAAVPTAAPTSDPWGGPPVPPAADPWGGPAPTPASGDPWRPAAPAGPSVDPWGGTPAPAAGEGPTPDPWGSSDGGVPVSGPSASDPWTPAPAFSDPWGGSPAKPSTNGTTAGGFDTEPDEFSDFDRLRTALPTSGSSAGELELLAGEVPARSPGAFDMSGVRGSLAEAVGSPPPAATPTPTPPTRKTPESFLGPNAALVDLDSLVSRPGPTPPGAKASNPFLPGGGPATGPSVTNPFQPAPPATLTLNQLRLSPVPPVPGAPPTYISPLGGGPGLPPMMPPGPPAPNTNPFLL", "experiment": "flow cytometry, 769p cells (human tumor line)"}
{"binder": "B1", "values": [{"measurement": "MFI (fold mean fluorescence index above isotype control)", "value": 14, "unit": "fold"}]}
